The values that follow come from ChEMBL document CHEMBL3351314, “Neutrophil elastase inhibitors as potential anti-inflammatory therapies” (ACS Med Chem Lett, 2014).

pEC50: −log10 of the molar value.

For the experiment, the target named is T1, Neutrophil elastase (Homo sapiens, UniProt P08246).
T1 sequence (P08246 whole entry): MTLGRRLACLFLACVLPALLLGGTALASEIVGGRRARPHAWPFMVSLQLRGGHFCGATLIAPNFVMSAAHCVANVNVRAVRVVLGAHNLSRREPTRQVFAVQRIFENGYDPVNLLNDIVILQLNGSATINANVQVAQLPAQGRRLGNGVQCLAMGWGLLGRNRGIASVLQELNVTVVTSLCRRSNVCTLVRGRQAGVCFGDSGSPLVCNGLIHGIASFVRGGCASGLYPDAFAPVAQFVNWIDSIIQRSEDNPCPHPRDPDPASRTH
In words: Inhibition of neutrophil elastase in human plasma using MeOSuc-Ala-Ala-Pro-Val-AMC as substrate by fluorescence assay.

Consider `CN1C(=O)N(c2cccc(C(F)(F)F)c2)C2=C(C(=O)CC2)C1c1ccc(C#N)cc1` (stereo unspecified), for which the pEC50 was 8.52.
